Experimental data reported in US20250288536A1, “PROTEIN PARTICLES INCLUDING AN ACTIVE AGENT AND METHODS OF MAKING AND USING THE SAME” (Dairy Mangement Inc., priority 2022, published 2025).

Experiment: Particle size, particle size distribution and PDI by DLS (Example 6)
Type: physicochemical
Conditions: pH 11, with HPH

Substance: α-lactalbumin
- mean particle size: ~280 nm
